This assay addresses BFL-1/A1ΔC (Homo sapiens (Human), UniProt Q16548). Briefly: Competitive fluorescence polarization binding assay, BFL-1/A1 (FITC-BID BH3). Conditions: BFL-1/A1 (IC50), Table A. The text has this: FIG. 19A and FIG. 19B are graphs that show potent targeting of the anti-apoptotic protein BFL-1/A1 by MIM1. […] Thus, the complex between FITC-BID BH3 and BFL-1/A1ΔC was employed in a competitive FP assay to monitor the capacity of MIM1 to target BFL-1/A1ΔC.

By UniProt entry, the sequences of proteins in these tests, tags left out. Where a name states a change or a piece, a line headed by the entry shows the natural chain unless it says otherwise. Residues count along the entry.
UniProt Q16548, 1-153: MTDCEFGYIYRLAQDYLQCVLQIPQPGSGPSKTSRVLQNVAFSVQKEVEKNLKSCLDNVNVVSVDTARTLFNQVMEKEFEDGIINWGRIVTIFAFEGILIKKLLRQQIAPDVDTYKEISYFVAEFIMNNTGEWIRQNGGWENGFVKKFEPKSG

By IC50 is commonly meant the concentration at which inhibition is half-maximal. Read a low IC50 as inhibition by little substance.

For the molecule `CC(C)C(C)/N=C1\SCC(Br)(C2CC2)N1/N=C/c1cc(O)c(O)cc1O` (stereo not shown) [187-19], the IC50 was 124 nM.

Values taken from US9926306B2, “Inhibition of MCL-1 and/or BFL-1/A1” (Dana-Farber Cancer Institute, Inc., priority 2012, dated 2018).
